Data as given in PubChem BioAssay (NCI).
Only a part is listed here, and it is no random draw.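 96-well plates, one dose, 48 hours. Percent growth reported; active if below 10.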 Calls of active or inactive are those of the source.

What was measured:
Experiment in all cases: NCI-60 one-dose screen, 48 h (100 = growth as untreated, 0 = no growth, -100 = all killed)
[1] = tested on: DU-145 prostate; conditions: 10 µM unless noted
[2] = tested on: K-562 leukemia; conditions: 10 µM unless noted
[3] = tested on: MALME-3M melanoma; conditions: 10 µM unless noted
[4] = tested on: MDA-MB-231 breast; conditions: 10 µM unless noted
[5] = tested on: RXF 393 renal; conditions: 10 µM unless noted
[6] = tested on: SF-268 CNS; conditions: 10 µM unless noted
[7] = tested on: SF-295 CNS; conditions: 10 µM unless noted
[8] = tested on: SF-539 CNS; conditions: 10 µM unless noted
[9] = tested on: UACC-257 melanoma; conditions: 10 µM unless noted
[10] = tested on: M14 melanoma; conditions: 10 µM unless noted
[11] = tested on: HCT-15 colon; conditions: 10 µM unless noted
[12] = tested on: HT29 colon; conditions: 10 µM unless noted
[13] = tested on: SNB-75 CNS; conditions: 10 µM unless noted
[14] = tested on: SNB-19 CNS; conditions: 10 µM unless noted
[15] = tested on: U251 CNS; conditions: 10 µM unless noted
[16] = tested on: PC-3 prostate; conditions: 10 µM unless noted
[17] = tested on: SK-MEL-5 melanoma; conditions: 10 µM unless noted
[18] = tested on: UACC-62 melanoma; conditions: 10 µM unless noted
[19] = tested on: LOX IMVI melanoma; conditions: 10 µM
[20] = tested on: SK-MEL-28 melanoma; conditions: 10 µM unless noted

Measured: growth

O=C(c1ccccc1)C(NCCCl)c1ccccc1 (stereo not given)
inactive: [1] 96.1% | [2] 127% | [3] 81.7% | [4] 107% | [5] 131% | [6] 89.1% | [7] 98.7% | [8] 96.6% | [9] 104% | [10] 90% | [11] 95.7% | [12] 78.2% | [13] 98.1% | [14] 98.2% | [15] 100% | [16] 84% | [17] 99.2% | [18] 91% | [19] 99.7% | [20] 99.1%

COC(=O)C1=C(C)O[P@](=O)(OC)CCC1c1ccccc1 (stereo not given in full)
inactive: [1] 115% | [2] 107% | [3] 94.3% | [4] 114% | [5] 105% | [6] 114% | [7] 102% | [8] 99.7% | [9] 100% | [10] 111% | [11] 104% | [12] 100% | [13] 89.6% | [14] 107% | [15] 103% | [16] 93.9% | [17] 110% | [18] 93.8% | [19] 105% | [20] 104%

CCN(CCCl)CC1OC(O)C(O)C1O (stereo not given)
inactive: [1] 121% | [2] 103% | [3] 115% | [4] 107% | [5] 116% | [6] 113% | [7] 88.3% | [8] 107% | [9] 108% | [10] 108% | [11] 110% | [12] 108% | [13] 98.3% | [14] 101% | [15] 97% | [16] 96.5% | [17] 86.2% | [18] 103% | [19] 105% | [20] 112%

CCCNC(=O)c1ccc(N(CCCl)CCCl)cc1
inactive: [1] 117% | [2] 113% | [3] 110% | [4] 111% | [5] 120% | [6] 107% | [7] 109% | [8] 109% | [9] 97.1% | [10] 96.9% | [11] 106% | [12] 105% | [13] 90% | [14] 114% | [15] 95.8% | [16] 83.8% | [17] 110% | [18] 105% | [19] 89.6% | [20] 105%

CCOC(=O)Nc1ccc([As](=O)(O)O)c(O)c1
inactive: [1] 110% | [2] 94.6% | [3] 111% | [4] 101% | [5] 135% | [6] 103% | [7] 105% | [8] 90.8% | [9] 113% | [10] 107% | [11] 108% | [12] 103% | [13] 98.5% | [14] 91.9% | [15] 103% | [16] 115% | [17] 92.4% | [18] 102% | [19] 101% | [20] 108%

O=C1NC(c2ccccc2)(c2ccccc2)C(=O)N1P(=O)(Oc1ccccc1)Oc1ccccc1
inactive: [1] 114% | [2] 98.3% | [3] 97.8% | [4] 106% | [5] 102% | [6] 106% | [7] 113% | [8] 101% | [9] 105% | [10] 99.9% | [11] 106% | [12] 111% | [13] 72.7% | [14] 98.4% | [15] 101% | [16] 89.7% | [17] 100% | [18] 95.9% | [19] 96.8% | [20] 106%

ClC1(Cl)SC(Cl)(Cl)C(Cl)(Cl)C1(Cl)Cl
inactive: [1] 102% | [2] 99% | [3] 92.6% | [4] 130% | [5] 105% | [6] 99.6% | [7] 77.9% | [8] 105% | [9] 118% | [10] 102% | [11] 97.1% | [12] 95.1% | [13] 80.1% | [14] 106% | [15] 101% | [16] 110% | [17] 110% | [18] 106% | [19] 97% | [20] 113%

CCCN(CCCl)C1c2ccccc2-c2ccccc21
inactive: [1] 105% | [2] 106% | [3] 101% | [4] 98.1% | [5] 122% | [6] 100% | [7] 94.8% | [8] 98.1% | [9] 104% | [10] 94.4% | [11] 98% | [12] 96.2% | [13] 83.1% | [14] 101% | [15] 102% | [16] 90.3% | [17] 98.4% | [18] 87.9% | [19] 95.7% | [20] 104%

Cc1ccc(NCCCl)c2c(=O)c3ccccc3sc12
inactive: [1] 104% | [2] 116% | [3] 104% | [4] 103% | [5] 90.1% | [6] 102% | [7] 98% | [8] 102% | [9] 96.9% | [10] 108% | [11] 88.8% | [12] 95.5% | [13] 95% | [14] 96.5% | [15] 94.9% | [16] 104% | [17] 101% | [18] 87.2% | [19] 96% | [20] 106%

O=C(O)C(=O)c1ccc(N(CCCl)CCCl)cc1
inactive: [1] 110% | [2] 89.9% | [3] 90.9% | [4] 107% | [5] 113% | [6] 101% | [7] 103% | [8] 97.4% | [9] 101% | [10] 102% | [11] 99.3% | [12] 102% | [13] 94.8% | [14] 102% | [15] 99.9% | [16] 106% | [17] 101% | [18] 98.9% | [19] 95.4% | [20] 110%

O=P(CCl)(Sc1ccc(Cl)cc1)N(CCCl)CCCl (stereo not given)
inactive: [1] 103% | [2] 103% | [3] 108% | [4] 102% | [5] 96% | [6] 96.1% | [7] 95.8% | [8] 93.9% | [9] 82.5% | [10] 106% | [11] 85% | [12] 89.1% | [13] 71.1% | [14] 93.4% | [15] 94.7% | [16] 76.7% | [17] 98.5% | [18] 92.6% | [19] 99.1% | [20] 99.7%

O=C(O)/C=C\c1cccc(N(CCCl)CCCl)c1
inactive: [1] 117% | [2] 106% | [3] 113% | [4] 100% | [5] 112% | [6] 108% | [7] 93.8% | [8] 106% | [9] 108% | [10] 106% | [11] 104% | [12] 106% | [13] 93.5% | [14] 98% | [15] 95.8% | [16] 87.5% | [17] 104% | [18] 91.5% | [19] 105% | [20] 113%
